# Yeast mating assay 2: variants of the scFv Ab-95

Values reported by Engelhart et al. 2022, doi:10.1038/s41597-022-01779-4 (FLAb copy).

The target is the same throughout: PDVDLGDISGINAS, from the HR2 region of SARS-CoV-2 spike.

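Phage display of a naive human antibody library on the peptide gave the parent. The library (AAYL52) carries one to three amino acid substitutions per variant, with no insertions or deletions. The assay is AlphaSeq: two haploid yeast populations carry antibody and antigen on their surface. Mating (16 h, 30 °C) was followed by selection of diploids and sequencing of their barcodes. Read counts were normalised to the haploid input and turned into Kd by a linear fit to BCL2-family pairs of known affinity, for each replicate. Mating was done three times.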

Parent scFv Ab-95: VH joined to VL by the linker GGGGSGGGGSGGGGS. Changes lie in the light chain CDRs alone.
VH: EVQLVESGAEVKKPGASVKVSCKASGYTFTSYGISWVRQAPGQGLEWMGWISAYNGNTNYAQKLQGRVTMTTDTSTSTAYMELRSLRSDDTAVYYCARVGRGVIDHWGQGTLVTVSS
VL: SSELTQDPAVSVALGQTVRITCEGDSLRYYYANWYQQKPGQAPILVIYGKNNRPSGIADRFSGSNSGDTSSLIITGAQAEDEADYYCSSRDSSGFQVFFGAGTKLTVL

Each variant is given by its three light chain CDRs, as the data file delimits them; those of the parent are EGDSLRYYYAN, GKNNRPS, SSRDSSGFQVF. Scale: log10 of Kd in nM, estimated from mating counts; low values are strong binders. Averages over replicates are reported, and they cover detected replicates only. Where no diploid with the target was found in any replicate, the entry reads "not detected": below detection, most likely a poor binder, though not proof of it.

"log10 Kd (nM), mean",detected,control signals,CDR-L1,CDR-L2,CDR-L3
3.34,3 of 3,7 of 9,EGDCLRSYYAN,GKNNRPS,SSRDSSCFQVF
4.44,2 of 3,2 of 9,EGDSLRYYYAP,GKNNRPI,SSRDSSGFQVT
5.14,1 of 3,3 of 9,EGCSLRYYYAN,GKNNRPS,SSRDSIGFQVF
4.05,1 of 3,5 of 9,EIRSLRYYYAN,GKNNAPS,SSRDSSGFQVF
4.92,1 of 3,3 of 9,EGDSLRYYYAN,GKNNRRS,QSRDSMGFQVF
1.58,3 of 3,3 of 9,RGDSLRYYTAN,GYNNRPS,SSRDSSGFQVF
3.43,3 of 3,1 of 9,EGDSLRYYYAN,GKNNRPS,SSEDSSGGQVF
3.51,2 of 3,5 of 9,EQGSLRYYYAN,GKNNRPS,SSRDSMGFQVF
4.13,1 of 3,1 of 9,EGDYLRYYYAN,GKNNRPS,SSRDCSGFGVF
2.74,3 of 3,0 of 9,EGDSLRYYYAN,GKNNKPS,SSRWSSGFTVF
3.71,1 of 3,1 of 9,EGDFLRYYYAN,GKNNPPS,SSRDSSGHQVF
not detected,0 of 3,2 of 9,ESDSLRYYYAN,PENNRPS,SSRDSSGFQVF
4.32,1 of 3,1 of 9,EDDSQRYYYAN,GKPNRPS,SSRDSSGFQVF
3.53,1 of 3,5 of 9,EGDSLVYYYAN,GKNNRPS,SDPDSSGFQVF
3.23,2 of 3,2 of 9,EGTSLRYYYAN,GKNFRPS,SSRDSWGFQVF
not detected,0 of 3,0 of 9,EGDSVRYYYAN,PKNNRPS,SSRDSSTFQVF
1.60,3 of 3,6 of 9,EYDSLWPYYAN,GKNNRPS,SSRDSSGFQVF
2.16,3 of 3,1 of 9,EGDSLRYYYAN,GKDNRPS,SSRDSSGFQVY
not detected,0 of 3,0 of 9,CGDSLRYYYAN,IKNNRPS,SSIDSSGFQVF
4.20,1 of 3,1 of 9,EGDSLRYYYAT,GKLNRPS,SSRDSSGFQVF
3.08,2 of 3,1 of 9,EGDSLPYYYAN,GKNNRPS,SSRQSSTFQVF
not detected,0 of 3,1 of 9,EGDSLRYYYAN,GKTNRPS,SSRDHSGFQVF
2.59,3 of 3,3 of 9,EGDSLRYYYAN,GKNTRPS,SSRDSSGFAVE
4.81,1 of 3,4 of 9,EGDKLRYLYAN,GWNNRPS,SSRDSSGFQVF
2.96,3 of 3,4 of 9,EGDSLRYYYAN,GKNNRPC,SSKDSSPFQVF
2.37,3 of 3,2 of 9,EGDSLRYYYAN,GKNSRPS,SSRDSSGFQVY
not detected,0 of 3,0 of 9,EGDSLRYYYAN,GKDNRPS,SSRDSSGFQWF
5.06,2 of 3,2 of 9,EEDSLRGYYAN,GKNNRQS,SSRDSSGFQVF
3.61,3 of 3,3 of 9,EGDSLRYYYAN,GGNNRTS,SSRFSSGFQVF
4.84,3 of 3,3 of 9,EGDMLRYYYAS,GKNNRPS,SSRDSSGFQVW
not detected,0 of 3,0 of 9,EGDSLRYYIAN,DKNNRPS,SSKDSSGFQVF
2.56,2 of 3,0 of 9,EGDSLRYYEAN,QKNNRPS,SSRDHSGFQVF
4.09,2 of 3,4 of 9,EGDSLEYYYAN,GKFNRPS,SSRFSSGFQVF
2.87,1 of 3,4 of 9,EGVSLRYYYAN,GKENRPS,SSRDSSGFKVF
4.62,1 of 3,5 of 9,EGDSLRYYYAN,GKNNIPS,MSSDSSGFQVF
0.46,3 of 3,5 of 9,EGDSLRYNYAN,GHNNRPS,MSRDSSGFQVF
2.09,3 of 3,2 of 9,RGDSLRYYYAN,GKNNRPS,SSKDSSGFQVY
4.37,1 of 3,5 of 9,EGDSLRYYYAN,GKNFRPS,RSRDSSGMQVF
2.12,3 of 3,4 of 9,EGDSLRYYYAN,GLNNRPD,SSRDSSEFQVF
not detected,0 of 3,1 of 9,EGDSLRIYYAI,GKNNRPS,SSRDSSGFQVS
2.44,1 of 3,0 of 9,EGDSHRWYYAN,GKNNDPS,SSRDSSGFQVF
2.98,3 of 3,0 of 9,NGDSLREYYAN,GKNNRPS,SSRDSSGFQVC
1.90,3 of 3,4 of 9,EGDSARIYYAN,GKNNRPS,SSRDSSGFQVF
not detected,0 of 3,3 of 9,EGDSSRYYYAN,SKNNRPS,WSRDSSGFQVF
3.92,1 of 3,2 of 9,EGDSLRYYYAN,MKNNRPS,SCRRSSGFQVF
4.39,2 of 3,3 of 9,EGDSLRYYSAN,GKNNRPS,SSRDSSFFQVF
4.41,3 of 3,3 of 9,EGDSLRYYYAN,GRNNRCS,SSRDSVGFQVF
3.45,3 of 3,1 of 9,EGDSLCYLYAN,GKNNRPS,SSRDSNGFQVF
1.92,3 of 3,3 of 9,EGDSLRYSYAN,GKNNRPS,SSRDSSGFQVD
3.29,2 of 3,2 of 9,EGDSLRYYYAN,GSNNRPF,SSRDSSGSQVF
2.51,3 of 3,4 of 9,ELDMLRYYYAN,GKNNRPS,SSRDSPGFQVF
3.22,2 of 3,1 of 9,EGDSLRMYYAN,GFNNRPS,SSRDASGFQVF
not detected,0 of 3,1 of 9,EGDSLRIYYAN,GKNNRKS,SSRDFSGFQVF
not detected,0 of 3,0 of 9,EGDSLRYYYAN,GKNNFPS,SSRDSSGFKAF
3.08,3 of 3,5 of 9,EGDSLRYYIAN,GKNNRPG,SSRDSSGFKVF
not detected,0 of 3,3 of 9,EEDSLRYYYAN,GKNNRPS,SSRDSSFFQVV
4.49,2 of 3,4 of 9,EWDSLRYYYAN,GKANRPS,SSRDSSGAQVF
not detected,0 of 3,0 of 9,IGDSLRWYYMN,GKNNRPS,SSRDSSGFQVF
1.08,3 of 3,1 of 9,EGDSLRYYQAN,GKNNRPK,SSRDSSGFQVF
2.42,3 of 3,3 of 9,EGDSLRYYYAN,GKNNRPS,SSRDCSWFQVF
2.96,3 of 3,3 of 9,EGDSLRYYYAN,GKNNRDS,SSRDNSGTQVF
3.28,3 of 3,2 of 9,EGDSLWYYYAN,GKNDRPS,SSRDTSGFQVF
2.38,2 of 3,0 of 9,EGDSLRYYKAN,GKNNRPS,SSRDSSGFDKF
3.27,2 of 3,1 of 9,EGDSLRYYYAN,GKNNRPS,SSRWSCGFNVF
not detected,0 of 3,2 of 9,EGDSLRWYVAN,GKNNRPF,SSRDSSGFQVF
1.23,3 of 3,0 of 9,EGDSLMYQYAN,GKNNRPS,SSRDSSGMQVF

5 of these entries, quoted again:

CDR-L1,CDR-L2,CDR-L3,"log10 Kd (nM), mean",detected,control signals
EGDCLRSYYAN,GKNNRPS,SSRDSSCFQVF,3.34,3 of 3,7 of 9
EGDSLRYYYAN,GLNNRPD,SSRDSSEFQVF,2.12,3 of 3,4 of 9
EGDSLRYYYAN,GKNFRPS,RSRDSSGMQVF,4.37,1 of 3,5 of 9
EGTSLRYYYAN,GKNFRPS,SSRDSWGFQVF,3.23,2 of 3,2 of 9
EGDSLRYYYAN,GKNNRPS,SSRDCSWFQVF,2.42,3 of 3,3 of 9

Parent in this assay: reference entry 2.31, copy in this library 2.25. Three control strains display no target. For library AAYL52, 28% of the pairings with them gave a signal, with a median of 3.91 and one signal in twenty below 2.90, so weak values seen in few replicates may be background. Also given: how often the same scFv was detected with the empty control strains.